Experimental data as given in BindingDB's records for doi:10.1016/j.bioorg.2014.11.005 (Charles University In Prague, 2015).

By UniProt entry, the sequences of proteins in these tests, tags left out.
UniProt Q9N1N9, whole entry: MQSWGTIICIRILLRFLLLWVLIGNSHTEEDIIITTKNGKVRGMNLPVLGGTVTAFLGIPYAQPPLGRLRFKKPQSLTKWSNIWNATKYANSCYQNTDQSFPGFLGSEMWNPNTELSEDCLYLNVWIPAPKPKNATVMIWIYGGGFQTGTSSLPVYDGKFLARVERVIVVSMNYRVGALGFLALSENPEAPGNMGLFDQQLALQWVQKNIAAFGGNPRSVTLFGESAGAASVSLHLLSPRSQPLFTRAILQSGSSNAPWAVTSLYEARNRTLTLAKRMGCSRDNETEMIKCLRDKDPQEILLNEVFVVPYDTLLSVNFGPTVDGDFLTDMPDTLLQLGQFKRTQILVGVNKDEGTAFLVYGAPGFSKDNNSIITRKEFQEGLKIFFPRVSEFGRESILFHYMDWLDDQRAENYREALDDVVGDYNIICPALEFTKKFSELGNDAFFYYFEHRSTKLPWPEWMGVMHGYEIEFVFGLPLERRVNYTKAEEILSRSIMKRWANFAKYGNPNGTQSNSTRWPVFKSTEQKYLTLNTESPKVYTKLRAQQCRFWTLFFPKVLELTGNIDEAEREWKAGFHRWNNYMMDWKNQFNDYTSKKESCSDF

Biological target: Carboxylic ester hydrolase (Equus caballus, UniProt Q9N1N9)
Assay: Ellman's Method

## CCN(C)C(=O)Oc1cccc([C@H](C)N(C)C)c1 [3-[(1S)-1-(dimethylamino)ethyl]phenyl N-ethyl-N-methylcarbamate]
  IC50: 20 µM
